From patent US20140162974A1, “METHODS FOR MODULATION OF PHOSPHORUS AND FGF23” (Luitpold Pharmaceuticals, Inc., priority 2012, published 2014)

Tests used:
[1] = tested on: serum phosphate, urinary fractional excretion of phosphate; assay: Example 3 trial: serum and urinary phosphate; set-up: species or system human; details: in vivo
Method: (§1) The following example describes an open-label, multicenter, 5-week, prospective, randomized trial that compared single equivalent doses of intravenous elemental iron in the form of FCM versus iron dextran in women with iron deficiency anemia due to heavy uterine bleeding. Study visits were on Days 0 (when iron was infused), 1 (24 hours after iron infusion), 7, 14, and 35. The primary objectives were to determine the effect of iron deficiency on cFGF23 and iFGF23 levels and the effect of intravenous iron on iFGF23 and cFGF23 levels.
Randomization occurred centrally via a fax-based system. […]
Blood and urine samples were sent to a central laboratory for analysis (Covance Central Laboratory Service, Indianapolis, Ind.). Hemoglobin, blood counts, iron indices, electrolytes, and serum and urinary phosphate and creatinine were measured with standard, automated, multi-analyte techniques. Urinary fractional excretion of phosphate (FEPi) was calculated from the three-hour, morning urine collections as urinary phosphate x serum creatinine/serum phosphate x urinary creatinine. Serum levels of 25-hydroxyvitamin D and 1,25-dihydroxyvitamin D were measured in duplicate by radioimmunoassay (DiaSorin, Stillwater, Minn.) with intra-assay coefficients of variation (CV)<11.6%. […]

[2] = Example 3 trial: adverse events; type: in vivo, human
Method: as §1
Randomization occurred centrally via a fax-based system. Subjects who were randomized to FCM (Luitpold Pharmaceuticals Inc., Shirley N.Y.) received an intravenous infusion of 15 mg/kg up to a maximum of 1000 mg diluted in 250 cc normal saline solution. The complete dose was infused over 15 minutes on day 0. Subjects who were randomized to iron dextran received Dexferrum® (Luitpold Pharmaceuticals Inc., Shirley N.Y.) on day 0 using a standard protocol. An initial test dose of 25 mg was administered slowly over 5 minutes.
Laboratory testing of blood and three-hour urine collections was performed at the screening visit and on study days 0 (when iron was infused), 1 (24 hours after iron infusion), 7, 14, and 35 (see e.g., FIG. 2A). Any subject who experienced a reduction in serum phosphate below the normal range after day 0 underwent additional phosphate measurements at 14 day intervals following day 35 until the level returned to the normal reference range. Safety evaluations of all subjects included ascertainment of adverse events, physical examinations at all study visits, and laboratory assessments. Any subject who withdrew from the study received a follow-up phone call to ascertain adverse events 30 days after they received study drug.
The pre-specified primary endpoints were changes in blood and urine markers of phosphate and bone metabolism among the evaluable population, defined as those subjects with baseline and at least one post-randomization set of FGF23 and blood and urinary phosphate levels. Secondary endpoints included the proportion of subjects achieving a hemoglobin increase […] anytime between baseline and day 35, and the change from baseline to highest hemoglobin, ferritin, and TSAT anytime during the 35-day study period. Additional safety endpoints included incidence, severity, and seriousness of adverse events, and incidence of treatment-emergent abnormal clinical laboratory values in the safety population, defined as all subjects who received the study drug regardless of subsequent laboratory testing.
The 2-sided, 95% confidence interval for the absolute difference in the proportions between the FCM and iron dextran groups was calculated to test the secondary endpoint of whether the proportion of subjects who achieved a hemoglobin increase ≧2 g/dL at any time after the baseline visit differed by iron preparation. […] The number and proportion of subjects who experienced an adverse event in the safety population was summarized and rates between the iron treatment groups using Fisher's exact test were compared for the categorical safety endpoints. Analyses were conducted using SAS version 9 (Cary, N.C.). All statistical tests were 2-tailed and p values<0.05 were considered statistically significant.

[3] = type: in vivo
Method: The following example describes a randomized, active controlled trial of subjects with iron deficiency anemia and non-dialysis dependent chronic kidney disease and elevated cardiovascular risk who received either FCM (750 mg on Day 0 and Day 7 for a total of 1500 mg) or iron sucrose (Venofer; 200 mg on 5 visits between Days 0 and 14 for a total of 1000 mg). Study visits were on Days 0, 3, 7, 10, 14, 28, 56, and 120. A phone assessment occurred on Day 90. The primary objective was to estimate the cardiovascular safety and efficacy FCM compared to Venofer in subjects who had iron deficiency anemia (IDA) and impaired renal function.
VIT-30 was a Phase 3, multicenter, randomized, active-controlled, open-label study that compared the safety and efficacy of IV FCM vs. IV Venofer in subjects with IDA and impaired renal function. […]
Safety assessments were summarized for the Safety Population unless stated otherwise. Subjects were analyzed under the treatment actually received.
The difference between FCM and Venofer in the proportion of subjects experiencing the primary composite endpoint was assessed with a 95% 2-sided CI constructed with the normal approximation to the binomial with continuity correction. […] The precision of the estimated treatment group difference was measured by the width of the 95% CI. […]

subjects in whom serum phosphate decreased to <2.0 mg/dL [1] | Substance | subjects who experienced one or more adverse events [2] [%] | subjects with adverse events considered to be related to study drug [2] [%] | adverse event: reduced serum phosphate noted by subjects' physicians ([2]; p=0.008 between groups) [%] | Discontinuation from study due to adverse event, n (%) ([2]; safety population) | Patients experiencing one or more adverse events related to study drug, n (%) ([2]; safety population) | Patients experiencing one or more adverse events, n (%) ([2]; safety population) | Patients experiencing one or more serious adverse events, n (%) ([2]; safety population) | hazard ratio (FCM versus Venofer) for the primary composite safety endpoint ([3]; Cox proportional hazards) | subjects with 1 or more adjudicated events comprising the primary composite safety endpoint ([3]; Safety Population, through Day 120) [%]
none | iron dextran [reference compound] | 60 | 37 | 3 | 2 (6%) n (%) | 11 (37%) n (%) | 18 (60%) n (%) | 0 (0%) n (%) | – | –
– | polynuclear iron (III)-hydroxide 4(R)-(poly-(1→4)-O-α-glucopyranosyl)-oxy-2(R),3(S),5(R),6-tetrahydroxy-hexanoate [FCM] | – | – | – | – | – | – | – | 1.143 | 13.71
